Chains of the proteins cited; added tags and fusions are not shown.
UniProt P28223, whole entry, looked up: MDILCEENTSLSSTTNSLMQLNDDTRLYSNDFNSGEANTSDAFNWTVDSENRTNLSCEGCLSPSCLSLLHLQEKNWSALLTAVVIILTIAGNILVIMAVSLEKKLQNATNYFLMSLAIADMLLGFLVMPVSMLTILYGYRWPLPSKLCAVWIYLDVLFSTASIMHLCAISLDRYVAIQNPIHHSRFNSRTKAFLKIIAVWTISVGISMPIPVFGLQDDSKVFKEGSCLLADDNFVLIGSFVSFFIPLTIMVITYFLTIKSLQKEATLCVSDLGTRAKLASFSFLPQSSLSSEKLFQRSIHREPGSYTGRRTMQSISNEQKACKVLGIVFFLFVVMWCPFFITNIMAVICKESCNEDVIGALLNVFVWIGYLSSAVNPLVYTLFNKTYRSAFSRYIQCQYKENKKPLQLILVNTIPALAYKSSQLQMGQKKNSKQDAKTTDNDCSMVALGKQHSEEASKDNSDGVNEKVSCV

According to article PMC12916490 (Molecular Psychiatry, 2025):

Key:
[1] = target: T1, h5-HT2A (Homo sapiens, UniProt P28223); assay: β-arrestin 2 recruitment (NanoBiT), h5-HT2A; format: cell-based; parameters: expressed in transfected cells
Description: (§1) Activation of h5-HT2A, h5-HT2B, and h5-HT2C receptors was examined by measuring the accumulation of inositol monophosphate (IP1) as a marker for Gαq-mediated signaling. For h5-HT2A, additional assays measured β-arrestin 2 recruitment and arachidonic acid release, the latter serving as a marker of Gαi/o,12/13 activation. The methodology is described in detail in the Supplementary information.
(§2) The IC50 values from the radioligand binding assays were determined by nonlinear regression, using three independent concentration-response curves fitted to a one-site model. The Cheng-Prusoff equation was used to calculate Kᵢ values for the competing ligands. EC50 values were determined by applying nonlinear regression to concentration-response curves. Bias factors (β) were calculated based on the relative intrinsic activity approach. […]
(§3) agonist solutions was added, and the signal was monitored for 2 h. […]
(§4) Arachidonic acid release was assessed as a marker for Gαi/o,12/13 mediated signaling. […]
(§5) Thereafter, the plate was put on ice, and 400 μL incubation supernatant per well was transferred int o scintillation vials containing scintillation fluid (Ultimagold, Perkin Elmer, Schwerzenbach, Switzerland). […] Radioactivity was measured on a liquid scintillation counter (Packard 1900 TR Tri-Carb Liquid Scintillation Counter; Packard Instrument Company). […]

[2] = target: T1, h5-HT2A; assay: biochemical; format: binding; parameters: expressed in transfected cells; host or cells: HEK 293 cells (membrane preparation)
[3] = target: T1, h5-HT2A; assay: IP1 formation (Gαq-mediated signaling), h5-HT2A; format: cell-based; parameters: expressed in transfected cells; host or cells: HEK 293 cells (membrane preparation)
[4] = target: T1, h5-HT2A; assay: Arachidonic acid release (Gαi/o,12/13 marker), h5-HT2A; format: cell-based; parameters: expressed in transfected cells; host or cells: HEK 293 cells (membrane preparation)
Description: as §1, §2, §3, §4, §5

COc1ccc(OC)c(CC(C)N)c1.Cl (stereo not shown) [2,5-DMA, 2,5-Dimethoxyamphetamine hydrochloride]
EC50 [1]: 1660 nM | Ki [2]: 2500 nM | EC50 [3]: 1380 nM | EC50 [4]: 160 nM
